US20230295119A1, “SUBSTITUTED PYRIDINES FOR THE TREATMENT OF INFLAMMATORY DISEASES” (GOSSAMER BIO SERVICES, INC., priority 2020, published 2023)

Amino acid sequences for entries named in this document (tags omitted). Residues count along the entry.
UniProt O60674, whole entry: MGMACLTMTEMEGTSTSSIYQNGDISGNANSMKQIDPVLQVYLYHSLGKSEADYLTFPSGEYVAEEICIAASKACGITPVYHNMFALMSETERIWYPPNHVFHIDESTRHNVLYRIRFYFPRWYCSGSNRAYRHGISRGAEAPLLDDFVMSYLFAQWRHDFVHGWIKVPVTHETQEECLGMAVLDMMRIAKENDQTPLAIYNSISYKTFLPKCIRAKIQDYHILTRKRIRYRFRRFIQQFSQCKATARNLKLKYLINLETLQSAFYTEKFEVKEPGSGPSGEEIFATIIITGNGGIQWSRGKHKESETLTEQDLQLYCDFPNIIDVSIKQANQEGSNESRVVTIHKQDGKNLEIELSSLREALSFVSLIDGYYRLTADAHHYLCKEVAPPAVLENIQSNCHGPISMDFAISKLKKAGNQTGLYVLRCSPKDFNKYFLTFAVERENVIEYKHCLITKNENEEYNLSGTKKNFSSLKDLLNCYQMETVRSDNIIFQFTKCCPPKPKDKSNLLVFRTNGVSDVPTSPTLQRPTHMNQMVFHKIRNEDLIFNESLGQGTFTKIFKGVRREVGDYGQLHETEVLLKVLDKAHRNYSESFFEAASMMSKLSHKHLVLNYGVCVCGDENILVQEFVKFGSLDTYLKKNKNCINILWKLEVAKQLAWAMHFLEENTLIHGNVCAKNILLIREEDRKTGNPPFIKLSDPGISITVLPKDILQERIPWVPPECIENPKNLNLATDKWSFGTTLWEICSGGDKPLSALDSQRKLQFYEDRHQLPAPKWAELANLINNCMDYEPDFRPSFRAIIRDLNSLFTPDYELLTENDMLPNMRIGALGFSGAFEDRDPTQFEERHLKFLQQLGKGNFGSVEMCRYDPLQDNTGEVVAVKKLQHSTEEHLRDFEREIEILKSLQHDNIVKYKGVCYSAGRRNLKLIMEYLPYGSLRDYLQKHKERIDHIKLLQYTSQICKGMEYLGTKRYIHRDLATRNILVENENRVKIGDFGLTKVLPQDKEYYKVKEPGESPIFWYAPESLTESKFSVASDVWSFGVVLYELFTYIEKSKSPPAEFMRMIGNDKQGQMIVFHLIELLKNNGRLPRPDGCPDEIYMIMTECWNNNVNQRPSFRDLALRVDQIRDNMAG
UniProt P29597, 589-875 limits assumed: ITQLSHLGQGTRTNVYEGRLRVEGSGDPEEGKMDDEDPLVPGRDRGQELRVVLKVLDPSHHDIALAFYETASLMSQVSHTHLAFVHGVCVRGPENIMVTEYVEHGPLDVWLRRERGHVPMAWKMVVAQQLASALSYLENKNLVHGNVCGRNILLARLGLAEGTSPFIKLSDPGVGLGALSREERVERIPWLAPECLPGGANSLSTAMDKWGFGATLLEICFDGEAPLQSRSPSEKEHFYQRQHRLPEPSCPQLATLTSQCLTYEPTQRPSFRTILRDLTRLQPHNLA

Key:
[1] = molecular target: human JAK2 (Homo sapiens (Human), UniProt O60674); test: JAK2 TR-FRET kinase assay; details: read-out: JAK2 IC50, JAK2 0.025 nM
[2] = molecular target: TYK2 JH2 domain (Homo sapiens (Human), UniProt P29597); test: TYK2 JH2 NanoBRET assay; type: binding; details: read-out: TYK2 IC50, Table 20

Structure (SMILES)	IC50 [1] [nM]	IC50 [2] [nM]
CCC(=O)c1cnc(Nc2ccc(C(C)(C)NC)cn2)cc1Nc1cccc(-c2ncn(C)n2)c1OC	50 to 500	
CCC(=O)c1cnc(Nc2ccc(C(C)(C)N)cn2)cc1Nc1cccc(-c2ncn(C)n2)c1OC	50 to 500	5 to 50
